Assay results: ChEMBL document CHEMBL5726792, “Biaryl kinase inhibitors” (2018)

Amino acid sequences for entries named in this document (tags omitted). A change or cut given only in a name is not applied to a line headed by its entry.
UniProt Q2M2I8: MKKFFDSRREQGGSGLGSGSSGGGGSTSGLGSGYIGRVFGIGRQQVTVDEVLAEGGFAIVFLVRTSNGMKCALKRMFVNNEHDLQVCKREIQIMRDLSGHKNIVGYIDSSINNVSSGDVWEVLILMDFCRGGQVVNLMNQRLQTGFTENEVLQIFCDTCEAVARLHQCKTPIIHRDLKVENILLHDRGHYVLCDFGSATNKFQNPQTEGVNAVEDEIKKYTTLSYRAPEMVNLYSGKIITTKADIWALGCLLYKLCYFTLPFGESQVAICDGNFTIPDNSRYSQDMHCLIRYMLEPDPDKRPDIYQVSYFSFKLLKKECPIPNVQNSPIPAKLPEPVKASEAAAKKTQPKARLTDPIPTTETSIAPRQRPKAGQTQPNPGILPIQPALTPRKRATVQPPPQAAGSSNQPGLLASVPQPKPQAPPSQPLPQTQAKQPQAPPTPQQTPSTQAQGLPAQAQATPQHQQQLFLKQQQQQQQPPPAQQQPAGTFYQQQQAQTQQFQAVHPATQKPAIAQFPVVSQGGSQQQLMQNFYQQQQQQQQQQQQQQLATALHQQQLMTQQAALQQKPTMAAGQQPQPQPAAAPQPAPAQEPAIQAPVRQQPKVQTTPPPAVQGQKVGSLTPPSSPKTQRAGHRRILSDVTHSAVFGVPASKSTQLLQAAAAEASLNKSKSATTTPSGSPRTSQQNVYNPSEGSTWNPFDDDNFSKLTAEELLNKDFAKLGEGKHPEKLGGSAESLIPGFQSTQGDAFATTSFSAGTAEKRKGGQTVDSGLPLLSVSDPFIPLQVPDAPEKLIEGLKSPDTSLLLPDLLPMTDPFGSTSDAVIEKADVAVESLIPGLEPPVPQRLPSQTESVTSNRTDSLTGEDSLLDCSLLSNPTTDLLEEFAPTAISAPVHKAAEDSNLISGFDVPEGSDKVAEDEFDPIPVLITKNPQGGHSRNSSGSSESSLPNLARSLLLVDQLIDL

Target: AP2-associated protein kinase 1 (Homo sapiens, UniProt Q2M2I8)
Test: The reactions were initiated by the combination of bacterially expressed, GST-Xa-hAAK1 with substrates and test compounds. The reactions were incubated at room temperature for 3 hours and terminated by adding 60 μl of 35 mM EDTA buffer to each sample. […] Compounds were dissolved at 10 mM in dimethylsulfoxide (DMSO) and evaluated at eleven concentrations.

| SMILES | IC50 [nM] |
| --- | --- |
| CC(C)C[C@](C)(N)COc1cnc(-c2ccncc2)cc1Cl | 3.2 |
| CC(C)C[C@](C)(N)COc1cnc(-c2ccnc(Cl)c2)cc1Cl | 2.2 |
